The values that follow come from US9914735B2, “Heteroaryl Syk inhibitors” (Boehringer Ingelheim International GmbH, priority 2014, dated 2018).

Amino acid sequences for entries named in this document (tags omitted). Residues count along the entry.
UniProt P36888, 27-993: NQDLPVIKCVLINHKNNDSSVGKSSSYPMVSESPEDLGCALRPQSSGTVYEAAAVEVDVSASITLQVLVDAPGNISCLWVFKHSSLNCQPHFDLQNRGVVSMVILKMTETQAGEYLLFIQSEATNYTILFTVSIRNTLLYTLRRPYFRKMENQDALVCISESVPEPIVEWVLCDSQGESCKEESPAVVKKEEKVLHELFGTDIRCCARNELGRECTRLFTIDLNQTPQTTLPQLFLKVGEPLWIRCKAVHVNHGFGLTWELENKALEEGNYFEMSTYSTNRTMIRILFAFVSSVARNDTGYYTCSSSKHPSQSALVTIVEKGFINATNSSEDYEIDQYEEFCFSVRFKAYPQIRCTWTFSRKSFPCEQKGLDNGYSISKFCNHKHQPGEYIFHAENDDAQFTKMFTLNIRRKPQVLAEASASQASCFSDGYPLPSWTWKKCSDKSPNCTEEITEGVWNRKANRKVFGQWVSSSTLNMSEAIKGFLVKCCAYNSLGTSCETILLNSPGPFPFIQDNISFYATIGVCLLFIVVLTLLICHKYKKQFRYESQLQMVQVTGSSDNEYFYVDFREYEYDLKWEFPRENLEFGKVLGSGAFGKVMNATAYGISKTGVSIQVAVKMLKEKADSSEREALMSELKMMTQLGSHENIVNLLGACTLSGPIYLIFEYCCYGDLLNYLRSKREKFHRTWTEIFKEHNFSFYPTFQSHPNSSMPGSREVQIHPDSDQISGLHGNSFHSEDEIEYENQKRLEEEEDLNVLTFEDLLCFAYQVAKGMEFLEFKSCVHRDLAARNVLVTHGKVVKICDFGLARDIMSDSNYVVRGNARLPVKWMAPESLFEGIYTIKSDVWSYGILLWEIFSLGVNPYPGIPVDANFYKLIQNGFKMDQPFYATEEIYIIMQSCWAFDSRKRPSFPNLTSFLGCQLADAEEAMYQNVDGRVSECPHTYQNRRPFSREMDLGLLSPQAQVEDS

Read-outs that look alike come from different tables or passages of the source.

Experiment [1] concerns the target FLT3 (Homo sapiens (Human), UniProt P36888). Put plainly: FLT3 kinase test (Z'-LYTE). It counts as biochemical. As to the method: FLT3 is obtained from Invitrogen in 50 mM Tris (pH7.5); 100 mM NaCl; 0.05 mM EDTA, 0.05% NP-40, 2 mM DTT; 50% Glycerol # PV3182; Lot 286671; sequence see below). The enzyme is diluted to 720 nM (35 μg/ml) in enzyme dilution buffer and 10 μl aliquots are stored at −80° C.
The activity of FLT3 is measured using the Z′-LYTETM assay technology from Invitrogen (#PV3191)
The assay is performed in 384 black plates from Corning (#3676) in a final volume of 10 μl by adding 5 μl of kinase peptide mix and 2.5 μl of compound dilution. The reaction is started by addition of 2.5 μl of the 4×ATP solution.
Positive controls are reaction mixtures containing no test compound; negative controls (blanks) are reaction mixtures containing no kinase. As a further control, the phosphopeptide solution is added to wells without kinase (=100% phosphorylation control). The non inhibited kinase reaction will result in a phosphorylation corresponding to 20%-30% of the phosphorylation control.
The reaction is performed for 1 h at room temperature before 5 μl of the development solution is added. After a further incubation for 1 h at room temperature 5 μl of the stop reagent is added. The plates are read on a Flex Station II 384 (Molecular Devices).
To control for any potential inhibition of the protease present in the development solution, the phosphopeptide is incubated with the development solution in the presence of the highest concentration of the test compound (usually 100 μM or 10 μM).
The output text file is evaluated in an “MS-Excel—VB-Makro” and “GraphPadPrism” (Version 5) (GraphPad Software Inc.) is used to calculate the results. Data for the inhibition of FLT3 are reported in M. data for the inhibition of the protease are reported in % CTL.

For experiment [2], the target named is Recombinant human Syk (amino acids 342-635), GST-Syk kinase fusion protein (Homo sapiens (Human), UniProt P43405). In words: Syk kinase test (Kinase Glo luminescence). It counts as biochemical. As to the method:
The output file of the reader is a csv file that contains the well number and measured relative light units (RLU). For data evaluation and calculation, the measurement of the negative control was set as 100% ctrl and the measurement of the positive control was set as 0% ctrl. Based on this values the % value for the measurement of each substance concentration was calculated using an Assay Explorer software (Accelrys). Normally, the % ctrl values calculated are between 0% and 100% values but may also occur outside these limits in individual cases based on variability or compound characteristics. The IC50 values were calculated from the % ctrl values using Assay Explorer software. Calculation:[y=(a−d)/(1+(x/c)^b)+d] a=low value, d=high value; x=conc M; c=IC50 M; b=hill; y=% ctrl.
On the technique in general: Kinase-Glo reads ATP consumption through a luciferase reaction.

The mark [3] stands for this setting: read-out: IC50 in μM (FLT3-Inhibition).
Setting [4] is: read-out: SYK-inhibition IC50-value.
[5] abbreviates: Table 1, read-out: FLT3-inhibition IC50-value.
Setting [6] is: Table 1, read-out: SYK-inhibition IC50-value.

A word on the IC50: it is the concentration needed to halve the response being measured. For `COc1cc(-c2cc(O[C@H](C)[C@H]3CNC(=O)C3)c3cccnc3c2)ccc1O` [11 of WO 2013/014060], the IC50 in experiment [1] (setting [3]) was 0.738 µM.
Consider `C[C@@H](Oc1cc(-c2ccc(N3CCOCC3)cc2)cc2nn(C)cc12)[C@H]1CNC(=O)C1` [Example 22, (4R)-4-[(1R)-1-[2-Methyl-6-(4-morpholinophenyl)indazol-4-yl]oxyethyl]-pyrrolidin-2-one], for which the IC50 in experiment [2] (read-out: IC50 in μM (SYK-Inhibition)) turned out to be 0.0128 µM; in experiment [2] (setting [4]) it was 0.0128 µM; in experiment [1] (setting [5]), 1.17 µM; in experiment [1] (setting [3]), 1.17 µM.
Turning to `C[C@@H](Oc1cc(-c2cscn2)cc2nn(C)cc12)[C@H]1CNC(=O)C1` [Example 29, (4R)-4-[(1R)-1-(2-methyl-6-thiazol-4-yl-indazol-4-yl)oxyethyl]pyrrolidin-2-one], the half-maximal inhibitory concentration (IC50) in experiment [2] (setting [6]) amounted to 0.0492 µM.
Take `C[C@@H](Oc1cc(-c2cnn(C3CCNCC3)c2)cc2nn(C)cc12)[C@H]1CNC(=O)C1` [Example 45, (4R)-4-[(1R)-1-[2-Methyl-6-[1-(4-piperidyl)pyrazol-4-yl]indazol-4-yl]oxyethyl]pyrrolidin-2-one]: the results for the 50% inhibitory concentration (IC50) in experiment [2] (setting [6]) and in experiment [1] (setting [5]) were 0.0147 µM and 2.04 µM, respectively.
Consider `COc1ccc2[nH]cc(-c3cc4nn(C)cc4c(O[C@H](C)[C@H]4CNC(=O)C4)n3)c2c1` [Example 53, (4R)-4-[(1R)-1-[6-(5-methoxy-1H-indol-3-yl)-2-methyl-pyrazolo[4,3-c]pyridin-4-yl]oxyethyl]pyrrolidin-2-one], for which, in experiment [2] (setting [6]), the IC50 is 0.0139 µM.
For `COc1cc(-c2cc3nn(C)cc3c(O[C@H](C)[C@H]3CNC(=O)C3)n2)ccc1OC1CCOCC1` [Example 73, (4R)-4-[(1R)-1-[6-(3-Methoxy-4-tetrahydropyran-4-yloxy-phenyl)-2-methyl-pyrazolo[4,3-c]pyridin-4-yl]oxyethyl]pyrrolidin-2-one], the IC50 in experiment [2] (setting [4]) came out at 0.0224 µM.
Turning to `C[C@@H](Oc1nc(-c2cnn(C3CCN(C)CC3)c2)cc2nn(C)cc12)[C@H]1CNC(=O)C1` [Example 82, (4R)-4-[(1R)-1-[2-Methyl-6-[1-(1-methyl-4-piperidyl)pyrazol-4-yl]pyrazolo [4,3-c]pyridin-4-yl]oxyethyl]pyrrolidin-2-one], the IC50 in experiment [2] (setting [6]) amounted to 0.0483 µM.
